Data published in article PMC9148506, “Engineering Saccharomyces cerevisiae for production of the capsaicinoid nonivamide” (2022).

Protein sequences, listed by entry. Tags and fused reporters are not part of them. Lines headed by an entry give the natural chain unless they say otherwise; changes in a name come on top. Residues count along the entry.
UniProt A0A2G3D6U1: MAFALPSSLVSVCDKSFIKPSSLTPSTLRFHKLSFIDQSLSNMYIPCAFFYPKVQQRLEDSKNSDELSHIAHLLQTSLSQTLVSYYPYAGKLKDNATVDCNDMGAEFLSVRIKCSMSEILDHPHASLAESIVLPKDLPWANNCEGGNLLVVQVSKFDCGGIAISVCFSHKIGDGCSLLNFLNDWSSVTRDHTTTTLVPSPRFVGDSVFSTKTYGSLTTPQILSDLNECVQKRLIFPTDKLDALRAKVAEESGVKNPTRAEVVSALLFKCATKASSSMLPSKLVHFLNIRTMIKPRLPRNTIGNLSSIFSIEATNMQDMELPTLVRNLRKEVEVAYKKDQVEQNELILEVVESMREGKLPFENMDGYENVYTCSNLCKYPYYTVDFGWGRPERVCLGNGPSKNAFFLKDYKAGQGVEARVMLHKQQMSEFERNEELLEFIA
UniProt Q5D8C0, 1-245: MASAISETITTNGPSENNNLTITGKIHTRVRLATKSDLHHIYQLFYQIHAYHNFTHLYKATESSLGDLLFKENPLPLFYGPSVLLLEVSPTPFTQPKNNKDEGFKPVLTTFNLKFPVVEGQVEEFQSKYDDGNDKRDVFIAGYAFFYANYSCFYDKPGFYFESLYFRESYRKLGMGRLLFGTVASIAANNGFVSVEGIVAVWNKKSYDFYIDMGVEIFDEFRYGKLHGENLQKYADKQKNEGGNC
UniProt Q8RXB8, 1-231: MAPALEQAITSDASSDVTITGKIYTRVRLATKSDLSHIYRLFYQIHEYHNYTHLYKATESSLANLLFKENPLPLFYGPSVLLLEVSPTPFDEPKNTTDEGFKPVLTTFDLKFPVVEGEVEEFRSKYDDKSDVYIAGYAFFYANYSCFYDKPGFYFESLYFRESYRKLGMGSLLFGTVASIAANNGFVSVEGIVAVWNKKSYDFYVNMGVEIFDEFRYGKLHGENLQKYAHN

Assays:
[1] = target: AT3 (Pun1) (Capsicum chinense, UniProt A0A2G3D6U1); assay: whole-cell bioconversion in yeast, HPLC and LC-MS/MS of nonivamide; details: AT3 alone (native yeast CoA ligase) or with ACS; nonanoic acid supplied; 30 °C, pH 6.5
[2] = target: CaAT (Capsicum annuum, UniProt Q5D8C0); assay: whole-cell bioconversion in yeast, HPLC of nonivamide; details: co-expressed CoA ligase (PhCL, IpfF or ACS); nonanoic acid supplied; 30 °C, pH 6.5
[3] = target: SlAT (Solanum lycopersicum, UniProt Q8RXB8); assay: as above; details: co-expressed CoA ligase (PhCL, IpfF or ACS); nonanoic acid supplied; 30 °C, pH 6.5

| SMILES | whole-cell bioconversion in yeast, HPLC and LC-MS/MS of nonivamide [1] | whole-cell bioconversion in yeast, HPLC of nonivamide [2] | whole-cell bioconversion in yeast, HPLC of nonivamide [3] |
| --- | --- | --- | --- |
| CCCCCCCCC(=O)NCc1ccc(O)c(OC)c1 | demonstrating the amide-forming activity of AT3 and ACS in yeast | most successful NAT in yeast for the formation of nonivamide in all combinations | SlAT from tomato to efficiently catalyse the formation of nonivamide in yeast |
| COc1cc(CN)ccc1O | amount detected for TMBNM007 (plasmid AT3) was significantly higher than the nonivamide produced | CaAT enzyme was shown to be the most successful NAT in yeast | – |
